Experimental data from US20060166866A1, “Cell adhesion inhibitors” (Biogen, Inc., a Massachusetts corporation, priority 1995, published 2006).

Protein sequences, listed by entry. Tags and fused reporters are not part of them. Residues count along the entry.
UniProt P05556, 21-798 limits assumed: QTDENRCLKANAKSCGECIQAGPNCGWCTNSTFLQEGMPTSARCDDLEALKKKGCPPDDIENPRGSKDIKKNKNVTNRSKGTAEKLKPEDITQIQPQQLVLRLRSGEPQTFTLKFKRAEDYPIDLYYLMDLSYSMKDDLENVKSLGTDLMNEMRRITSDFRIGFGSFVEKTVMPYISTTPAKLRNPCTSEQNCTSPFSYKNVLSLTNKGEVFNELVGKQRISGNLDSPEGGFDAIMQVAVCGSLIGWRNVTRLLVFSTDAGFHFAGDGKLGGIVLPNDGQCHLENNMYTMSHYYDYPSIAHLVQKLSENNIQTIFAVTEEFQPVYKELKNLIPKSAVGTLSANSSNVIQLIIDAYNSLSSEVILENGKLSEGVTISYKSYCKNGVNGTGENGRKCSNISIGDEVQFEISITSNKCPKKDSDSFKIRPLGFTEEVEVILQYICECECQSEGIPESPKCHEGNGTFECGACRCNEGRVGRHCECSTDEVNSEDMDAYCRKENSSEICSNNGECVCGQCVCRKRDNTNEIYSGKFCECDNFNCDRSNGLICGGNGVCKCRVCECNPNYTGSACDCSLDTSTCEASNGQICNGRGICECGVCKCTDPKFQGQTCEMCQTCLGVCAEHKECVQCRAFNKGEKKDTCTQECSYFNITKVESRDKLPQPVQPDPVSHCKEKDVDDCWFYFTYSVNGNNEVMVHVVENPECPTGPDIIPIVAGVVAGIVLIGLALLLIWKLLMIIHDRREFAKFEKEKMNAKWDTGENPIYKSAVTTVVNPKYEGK
UniProt P13612, 34-1032 limits assumed: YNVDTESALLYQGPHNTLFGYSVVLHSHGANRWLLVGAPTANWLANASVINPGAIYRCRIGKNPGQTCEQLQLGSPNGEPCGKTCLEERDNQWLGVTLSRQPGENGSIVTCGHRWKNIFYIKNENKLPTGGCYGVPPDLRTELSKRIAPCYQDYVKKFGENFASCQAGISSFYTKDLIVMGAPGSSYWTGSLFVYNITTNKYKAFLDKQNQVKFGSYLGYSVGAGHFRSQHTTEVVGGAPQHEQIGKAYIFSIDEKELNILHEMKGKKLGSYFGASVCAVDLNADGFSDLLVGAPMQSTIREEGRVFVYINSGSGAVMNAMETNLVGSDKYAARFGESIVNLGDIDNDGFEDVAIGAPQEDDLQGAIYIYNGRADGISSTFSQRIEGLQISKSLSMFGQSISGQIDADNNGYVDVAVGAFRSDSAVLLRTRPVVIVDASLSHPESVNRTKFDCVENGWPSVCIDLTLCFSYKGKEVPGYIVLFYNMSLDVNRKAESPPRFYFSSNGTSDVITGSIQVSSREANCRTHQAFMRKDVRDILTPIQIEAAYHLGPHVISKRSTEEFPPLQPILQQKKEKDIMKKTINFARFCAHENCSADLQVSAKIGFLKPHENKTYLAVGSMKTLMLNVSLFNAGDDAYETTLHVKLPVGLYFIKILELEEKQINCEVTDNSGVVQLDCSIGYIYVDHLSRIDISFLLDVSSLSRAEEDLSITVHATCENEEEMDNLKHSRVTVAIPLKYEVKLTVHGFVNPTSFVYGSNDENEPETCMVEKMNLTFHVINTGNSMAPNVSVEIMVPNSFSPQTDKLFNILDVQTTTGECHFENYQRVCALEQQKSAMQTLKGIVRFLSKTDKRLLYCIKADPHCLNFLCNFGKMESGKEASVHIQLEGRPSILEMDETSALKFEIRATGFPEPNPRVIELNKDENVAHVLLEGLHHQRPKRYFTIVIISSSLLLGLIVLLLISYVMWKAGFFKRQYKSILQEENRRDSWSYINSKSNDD

Biological target: VLA4 (Homo sapiens, UniProt P05556+P13612)
Assay: Inhibition of VLA4-dependent adhesion to BSA-CS1 (fluorescently labelled Ramos cells)
Conditions: binding of BCECF-labelled Ramos cells to CS1 peptide-coated wells, 2 mM MnCl2, 30 minutes at room temperature
Text: For example, the cell adhesion inhibitory activity of these compounds may be measured by determining the concentration of inhibitor required to block the binding of VLA-4-expressing cells to fibronectin- or CS1-coated plates. In this assay microtiter wells are coated with either fibronectin (containing the CS-1 sequence) or CS-1. If CS-1 is used, it must be conjugated to a carrier protein, such as bovine serum albumin, in order to bind to the wells. Once the wells are coated, varying concentrations of the test compound are then added together with appropriately labelled, VLA-4-expressing cells. Alternatively, the test compound may be added first and allowed to incubate with the coated wells prior to the addition of the cells. The cells are allowed to incubate in the wells format least 30 minutes. Following incubation, the wells are emptied and washed. Inhibition of binding is measured by quantitating the fluorescence or radioactivity bound to the plate for each of the various concentrations of test compound, as well as for controls containing no test compound.
VLA-4-expressing cells that may be utilized in this assay include Ramos cells, Jurkat cells, A375 melanoma cells, as well as human peripheral blood lymophocytes (PBLs). […]
We dissolved BSA-SMCC (Pierce Chemical, Rockford, Ill.; Catalog,# 77115) in H2O at a concentration of 10 mg/mL. […] Samples were analyzed for cross-linking by SDS-PAGE. […]

IC50: < 50 nM
SMILES: Cc1ccccc1NC(=O)Nc1ccc(CC(=O)NC(CC(C)C)C(=O)NC(CC(=O)O)c2ccc3c(c2)OCO3)cn1 (stereo not shown)
